# From patent US10874644B2, “Therapeutic approaches for treating Alzheimer disease and related disorders through a modulation of synapse function” (Pharnext, priority 2008, dated 2020)
# What was measured:
# [1] = test system: rat primary cortical neurons; test: Neurite outgrowth (neurites length) in beta-amyloid Aβ25-35 intoxicated rat primary cortical neuron culture; format: cell-based; conditions: Aβ25-35 20 μM for 2 days, drug added 1 hour before, Fig. 1A, 1B
# Text: Viable cells are counted in a Neubauer cytometer using the trypan blue exclusion test.
# [2] = test system: rat primary cortical neurons; test: LDH release in human Aβ1-42 toxicity on rat primary cortical cells; format: cell-based; conditions: 1 h pre-treatment, Aβ1-42 10 μM for 24 h; Fig. 3B, 3C
# Method: Primary rat cortical neurons are cultured as described previously. […] The control medium was prepared in the same conditions.
# Cortical neurons were intoxicated for 24 hours. Three separate cultures were performed per condition, 6 wells per condition.
# This colorimetric assay for the quantification of cell toxicity is based on the measurement of lactate dehydrogenase (LDH) activity released from the cytosol of dying cells into the supernatant.
smiles,measurement,setting,value
[H]/N=C(/N)N/C(=N/[H])NCCc1ccccc1 [Phenformin],"Prevention of Aβ25-35 intoxication (neurite outgrowth, neurites length)",[1],significantly prevented
same,"Prevention of Aβ1-42 intoxication, change of LDH release",[2],−56%
